Assay results taken from ChEMBL document CHEMBL1125866, “Aldophosphamide acetal diacetate and structural analogues: synthesis and cytotoxicity studies” (J Med Chem, 1991).

How the values were obtained:
[1] = test system: L1210; experiment: Concentration required to reduce the viability of L1210 cells by 50% after 1-h incubation at 37 degrees C
[2] = species on record: Sus scrofa; experiment: Half-life in […] at pH 7.4(37 degrees C) in the presence of pig Liver Carboxylate Esterase; type: ADME
[3] = Half-life in […] Phosphate buffer at pH 7.4(37 degrees C); type: ADME
Outline: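 Acetal at 100 μM in 0.05 M phosphate buffer, pH 7.4, shaken at 37 °C without enzyme. Aliquots taken at intervals (typically 2–50 h) and parent drug measured by reverse-phase C-18 HPLC with UV detection at 220 nm. Half-life from linear least-squares regression of pseudo-first-order decay.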

O=P(O)(N(CCCl)CCCl)N(CCCl)CCCl
IC50 [1]: 97 µM

COP(=O)(OCCC(OC(C)=O)OC(C)=O)N(CCCl)CCCl (stereo not given)
T1/2 [2]: 42 s
T1/2 [3]: 32 h

CCOP(=O)(OCCC(OC(C)=O)OC(C)=O)N(CCCl)CCCl (stereo not given)
T1/2 [2]: 42 s
T1/2 [3]: 29 h
